Test results taken from IntAct's records for PubMed 17476304.

B1: Cyclic AMP-responsive element-binding protein 1 (Homo sapiens), P16220-1 (parent)
chain: MTMESGAENQQSGDAAVTEAENQQMTVQAQPQIATLAQVSMPAAHATSSAPTVTLVQLPNGQTVQVHGVIQAAQPSVIQSPQVQTVQSSCKDLKRLFSGTQISTIAESEDSQESVDSVTDSQKRREILSRRPSYRKILNDLSSDAPGVPRIEEEKSEEETSAPAITTVTVPTPIYQTSSGQYIAITQGGAIQLANNGTDGVQGLQTLTMTNAAATQPGTTILQYAQTTDGQQILVPSNQVVVQAASGDVQTYQIRTAPTSTIAPGVVMASSPALPTQPAEEAARKREVRLMKNREAARECRRKKKEYVKCLENRVAVLENQNKTLIEELKALKDLYCHKSD

Variants of: B1
Conditions: with ep300_human EP300, Q09472

effect of a mutation on the interaction	Variant
increasing interaction	MTMESGAENQQSGDAAVTEAENQQMTVQAQPQIATLAQVSMPAAHATSSAPTVTLVQLPNGQTVQVHGVIQAAQPSVIQSPQVQTVQSSCKDLKRLFSGTQISTIAESEDSQESVDSVTDSQKRREILLRRPSYRKILNDLSSDAPGVPRIEEEKSEEETSAPAITTVTVPTPIYQTSSGQYIAITQGGAIQLANNGTDGVQGLQTLTMTNAAATQPGTTILQYAQTTDGQQILVPSNQVVVQAASGDVQTYQIRTAPTSTIAPGVVMASSPALPTQPAEEAARKREVRLMKNREAARECRRKKKEYVKCLENRVAVLENQNKTLIEELKALKDLYCHKSD [S129L]

Variants of: B1
Conditions: with ep300_human EP300, Q09472
Remark: another data set of the same source

effect of a mutation on the interaction	Variant
increasing interaction	MTMESGAENQQSGDAAVTEAENQQMTVQAQPQIATLAQVSMPAAHATSSAPTVTLVQLPNGQTVQVHGVIQAAQPSVIQSPQVQTVQSSCKDLKRLFSGTQISTIAESEDSQESVDSVTDSQKRREILSRRPAYRKILNDLSSDAPGVPRIEEEKSEEETSAPAITTVTVPTPIYQTSSGQYIAITQGGAIQLANNGTDGVQGLQTLTMTNAAATQPGTTILQYAQTTDGQQILVPSNQVVVQAASGDVQTYQIRTAPTSTIAPGVVMASSPALPTQPAEEAARKREVRLMKNREAARECRRKKKEYVKCLENRVAVLENQNKTLIEELKALKDLYCHKSD [S133A]

Variants of: B1
Conditions: with cbp_human CREBBP

effect of a mutation on the interaction	Variant
increasing interaction	MTMESGAENQQSGDAAVTEAENQQMTVQAQPQIATLAQVSMPAAHATSSAPTVTLVQLPNGQTVQVHGVIQAAQPSVIQSPQVQTVQSSCKDLKRLFSGTQISTIAESEDSQESVDSVTDSQKRREILSRRPSYRKILNDLLSDAPGVPRIEEEKSEEETSAPAITTVTVPTPIYQTSSGQYIAITQGGAIQLANNGTDGVQGLQTLTMTNAAATQPGTTILQYAQTTDGQQILVPSNQVVVQAASGDVQTYQIRTAPTSTIAPGVVMASSPALPTQPAEEAARKREVRLMKNREAARECRRKKKEYVKCLENRVAVLENQNKTLIEELKALKDLYCHKSD [S142L]
